Measurements from patent US9012461B2, “FAK inhibitors” (priority 2011, dated 2015).
Like-named read-outs stand apart in the source and are kept apart here.

Amino acid sequences for entries named in this document (tags omitted).
UniProt Q05397, whole entry: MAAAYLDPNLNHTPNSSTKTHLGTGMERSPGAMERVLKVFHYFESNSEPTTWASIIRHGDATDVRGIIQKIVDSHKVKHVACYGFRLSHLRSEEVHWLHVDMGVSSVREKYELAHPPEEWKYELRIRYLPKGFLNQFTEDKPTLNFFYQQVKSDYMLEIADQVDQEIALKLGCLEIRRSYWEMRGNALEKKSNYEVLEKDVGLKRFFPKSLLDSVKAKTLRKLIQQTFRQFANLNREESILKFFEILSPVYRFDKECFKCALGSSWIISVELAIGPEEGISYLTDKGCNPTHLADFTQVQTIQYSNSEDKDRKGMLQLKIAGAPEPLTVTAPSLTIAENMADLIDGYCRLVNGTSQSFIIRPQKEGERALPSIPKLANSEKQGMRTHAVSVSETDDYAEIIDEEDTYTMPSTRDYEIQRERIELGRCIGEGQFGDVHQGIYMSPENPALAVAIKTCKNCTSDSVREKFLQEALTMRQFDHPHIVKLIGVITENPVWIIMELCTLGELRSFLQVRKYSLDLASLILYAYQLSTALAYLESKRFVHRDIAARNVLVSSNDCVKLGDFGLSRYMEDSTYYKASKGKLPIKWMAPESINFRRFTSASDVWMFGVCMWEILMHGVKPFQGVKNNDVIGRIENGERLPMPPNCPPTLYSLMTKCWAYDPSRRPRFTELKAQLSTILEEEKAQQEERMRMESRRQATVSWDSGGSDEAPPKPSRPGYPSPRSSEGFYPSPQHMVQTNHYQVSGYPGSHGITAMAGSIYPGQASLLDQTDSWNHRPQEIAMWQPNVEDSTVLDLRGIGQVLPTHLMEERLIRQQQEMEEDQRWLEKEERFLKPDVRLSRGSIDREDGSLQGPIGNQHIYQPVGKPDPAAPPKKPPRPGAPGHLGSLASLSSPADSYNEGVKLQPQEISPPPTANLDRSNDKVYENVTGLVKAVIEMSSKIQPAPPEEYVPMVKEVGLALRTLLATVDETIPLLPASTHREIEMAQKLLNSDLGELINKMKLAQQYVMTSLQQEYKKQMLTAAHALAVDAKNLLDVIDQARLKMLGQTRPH

Target: phosphorylation of Y397-FAK in MDA-231-LNA cells (Homo sapiens (Human), UniProt Q05397)

Compound | % response of control at 2 μm (MDA-231-LNA cells) [%] | % response of control at 2 μm [%]
NC(=O)Cc1ccccc1CCc1nc(Nc2ccc(C3CNCCO3)cc2)ncc1C(F)(F)F (stereo not shown) [Compound 22, 2-(2-(2-(2-((4-(Morpholin-2-yl)phenyl)amino)-5-(trifluoromethyl)pyrimidin-4-yl)ethyl)phenyl)acetamide] | 91 | –
CN1CCC(c2ccc(Nc3ncc(C(F)(F)F)c(CCc4ccccc4CC(N)=O)n3)cc2)CC1 [Compound 16, 2-(2-(2-(2-((4-(1-methylpiperidin-4-yl)phenyl)amino)-5-(trifluoromethyl)pyrimidin-4-yl)ethyl)phenyl)acetamide] | 111 | –
CN1CCN(c2ccc(Nc3ncc(C(F)(F)F)c(CCc4ccccc4CC(N)=O)n3)cc2)CC1 [Compound 3, 2-(2-(2-(2-((4-(4-Methylpiperazin-1-yl)phenyl)amino)-5-(trifluoromethyl)pyrimidin-4-yl)ethyl)phenyl)acetamide] | 99 | –
NC(=O)Cc1ccccc1CCc1nc(Nc2ccc3c(c2)CCNC3)ncc1C(F)(F)F [Compound 21, 2-(2-(2-(2-((1,2,3,4-Tetrahydroisoquinolin-6-yl)amino)-5-(trifluoromethyl)pyrimidin-4-yl)ethyl)phenyl)acetamide] | 87 | –
CN1CCCCC1c1ccc(Nc2ncc(C(F)(F)F)c(CCc3ccccc3CC(N)=O)n2)cc1 (stereo not shown) [Compound 9, 2-(2-(2-(2-((4-(1-methylpiperidin-2-yl)phenyl)amino)-5-(trifluoromethyl)pyrimidin-4-yl)ethyl)phenyl)acetamide] | 105 | –
NC(=O)Cc1ccccc1CCc1nc(Nc2ccc(N3CCNCC3)cc2)ncc1C(F)(F)F [Compound 1, 2-(2-(2-(2-((4-(piperazin-1-yl)phenyl)amino)-5-(trifluoromethyl)pyrimidin-4-yl)ethyl)phenyl)acetamide] | – | 114
NC(=O)Cc1ccccc1CCc1nc(Nc2ccc(C3CCCNC3)cc2)ncc1C(F)(F)F (stereo not shown) [Compound 4, 2-(2-(2-(2-((4-(Piperidin-3-yl)phenyl)amino)-5-(trifluoromethyl)pyrimidin-4-yl)ethyl)phenyl)acetamide] | 105 | –
NC(=O)Cc1ccccc1CCc1nc(Nc2ccc(N3CCC(N)CC3)cc2)ncc1C(F)(F)F [Compound 20, 2-(2-(2-(2-((4-(4-Aminopiperidin-1-yl)phenyl)amino)-5-(trifluoromethyl)pyrimidin-4-yl)ethyl)phenyl)acetamide] | 111 | –
CC(C(N)=O)c1ccccc1CCc1nc(Nc2ccc(C3CCNCC3)cc2)ncc1C(F)(F)F (stereo not shown) [Compound 12, 2-(2-(2-(2-((4-(piperidin-4-yl)phenyl)amino)-5-(trifluoromethyl)pyrimidin-4-yl)ethyl)phenyl)propanamide] | – | 106
CN1CCN(c2ccc(Nc3ncc(C(F)(F)F)c(CCc4cccc(C(N)=O)c4)n3)cc2)CC1 [Compound 2, 3-(2-(2-((4-(4-Methylpiperazin-1-yl)phenyl)amino)-5-(trifluoromethyl)pyrimidin-4-yl)ethyl)benzamide] | 96 | –
CN1CCN(c2cccc(Nc3ncc(C(F)(F)F)c(CCc4cccc(C(N)=O)c4)n3)c2)CC1 [Compound 6, 3-(2-(2-((3-(4-Methylpiperazin-1-yl)phenyl)amino)-5-(trifluoromethyl)pyrimidin-4-yl)ethyl)benzamide] | 108 | –
CCN1CCC(c2ccc(Nc3ncc(C(F)(F)F)c(CCc4ccccc4CC(N)=O)n3)cc2)CC1 [Compound 31, 2-(2-(2-(2-((4-(1-Ethylpiperidin-4-yl)phenyl)amino)-5-(trifluoromethyl)pyrimidin-4-yl)ethyl)phenyl)acetamide] | 139 | –
NC(=O)Cc1ccccc1CCc1nc(Nc2ccc(C3CCCCN3)cc2)ncc1C(F)(F)F (stereo not shown) [Compound 8, 2-(2-(2-(2-((4-(Piperidin-2-yl)phenyl)amino)-5-(trifluoromethyl)pyrimidin-4-yl)ethyl)phenyl)acetamide] | – | 105
